Literature values as cited in PMC3684770, “S[+] Apomorphine is a CNS penetrating activator of the Nrf2-ARE pathway with activity in mouse and patient fibroblast models of amyotrophic lateral sclerosis^” (Free Radical Biology & Medicine, 2013).

Settings: human, in vivo; cited from earlier work

SMILES: Nc1nc2ccc(OC(F)(F)F)cc2s1 [riluzole]
- prolongation of average survival: approximately 3 months
